Experimental data taken from publication PMC4167179 (Results in Pharma Sciences, 2012).

By UniProt entry, the sequences of proteins in these tests, tags left out. Where a name states a change or a piece, a line headed by the entry shows the natural chain unless it says otherwise.
UniProt P01275: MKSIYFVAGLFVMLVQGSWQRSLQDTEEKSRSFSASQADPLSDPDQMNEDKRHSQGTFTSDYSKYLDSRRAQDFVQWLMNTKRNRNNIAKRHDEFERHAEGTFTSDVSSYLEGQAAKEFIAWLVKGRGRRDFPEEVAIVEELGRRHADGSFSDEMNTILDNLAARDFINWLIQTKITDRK

Biological target: T1, GLP-1 receptor (Rattus norvegicus, UniProt P32301)
T1 sequence (P32301 22-463): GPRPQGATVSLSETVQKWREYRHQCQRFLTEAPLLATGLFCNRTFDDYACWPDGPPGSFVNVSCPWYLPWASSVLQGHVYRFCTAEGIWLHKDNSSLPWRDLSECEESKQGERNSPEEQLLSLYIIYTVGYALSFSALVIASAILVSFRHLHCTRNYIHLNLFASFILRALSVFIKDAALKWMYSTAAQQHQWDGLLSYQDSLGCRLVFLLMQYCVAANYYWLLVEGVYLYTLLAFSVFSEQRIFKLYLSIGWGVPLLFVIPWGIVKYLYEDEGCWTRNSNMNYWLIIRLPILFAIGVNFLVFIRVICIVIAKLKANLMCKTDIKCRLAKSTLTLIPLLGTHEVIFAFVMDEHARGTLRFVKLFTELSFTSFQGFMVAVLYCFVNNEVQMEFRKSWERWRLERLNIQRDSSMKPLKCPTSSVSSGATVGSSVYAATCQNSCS
Assay: Adenylyl cyclase
Format: biochemical
Conditions: read-out: In vitro cAMP stimulation in plasma membranes of rat β-cell line RIN-m5F, EC50; 30 °C, 10 min, 10 μM GTP; mean ± SEM of three experiments

EC50: 0.153 ± 0.003 µM
Substance: GLP-1-(7-36)-(T11Q–Q23N)-amide-Q^11-PEG 5 kDa (HAEGQFTSDVSSYLEGNAAKEFIAWLVKGR; Glucagon-like peptide 1(7-36) C-terminal amide; 5 kDa PEG at Q11; UniProt P01275 98-127, looked up, variant T11Q Q23N)
